# In US9169209B2, “Compounds and compositions for the inhibition of NAMPT” (FORMA TM, LLC, priority 2011, dated 2015):
# By UniProt entry, the sequences of proteins in these tests, tags left out. Where a name states a change or a piece, a line headed by the entry shows the natural chain unless it says otherwise.
# UniProt P43490: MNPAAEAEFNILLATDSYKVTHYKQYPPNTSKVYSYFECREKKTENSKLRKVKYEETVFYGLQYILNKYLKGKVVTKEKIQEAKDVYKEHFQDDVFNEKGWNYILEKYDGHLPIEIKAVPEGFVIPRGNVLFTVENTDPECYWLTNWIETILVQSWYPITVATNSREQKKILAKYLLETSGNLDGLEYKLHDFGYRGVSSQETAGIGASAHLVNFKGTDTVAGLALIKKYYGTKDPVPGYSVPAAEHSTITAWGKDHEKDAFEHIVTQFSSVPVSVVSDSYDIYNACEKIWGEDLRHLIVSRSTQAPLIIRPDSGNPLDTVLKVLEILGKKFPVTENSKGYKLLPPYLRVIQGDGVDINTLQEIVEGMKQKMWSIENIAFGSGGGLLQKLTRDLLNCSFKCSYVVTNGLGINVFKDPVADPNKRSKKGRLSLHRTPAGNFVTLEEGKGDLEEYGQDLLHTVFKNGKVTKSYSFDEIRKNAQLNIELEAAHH
# Target: NAMPT (Homo sapiens (Human), UniProt P43490)
# Test: Biochemical Inhibition Assay (NAMPT enzymatic reaction, NMN quantified by mass spectrometry)
# Details: recombinant His-tagged NAMPT, 33 nM; 1 μM NAM; read-out: Biochem IC50
# Protocol: Recombinant His-tagged NAMPT was produced in E. coli cells, purified over a Ni column, and further purified over a size-exclusion column by XTAL Biostructures.
# The NAMPT enzymatic reactions were carried out in Buffer A (50 mM Hepes pH 7.5, 50 mM NaCl, 5 mM MgCl2, and 1 mM THP) in 96-well V-bottom plates. The compound titrations were performed in a separate dilution plate by serially diluting the compounds in DMSO to make a 100× stock. […] The compound and enzyme mix was incubated for 15 minutes at room temperature, then 10 μL of 10× substrate and co-factors in Buffer A were added to the test well to make a final concentration of 1 μM NAM, 100 μM 5-Phospho-D-ribose 1-diphosphate (PRPP), and 2.5 mM Adenosine 5′-triphosphate (ATP). The reaction was allowed to proceed for 30 minutes at room temperature, then was quenched with the addition of 11 μL of a solution of formic acid and L-Cystathionine to make a final concentration of 1% formic acid and 10 μM L-Cystathionine. Background and signal strength was determined by addition (or non-addition) of a serial dilution of NMN to a pre-quenched enzyme and cofactor mix.
# A mass spectrometry-based assay was used to measure the NAMPT reaction product (NMN) and the internal control (L-Cystathionine). NMN and L-Cystathionine were detected using the services of Biocius Lifesciences with the RapidFire system. In short, the NMN and L-Cystathionine are bound to a graphitic carbon cartridge in 0.1% formic acid, eluted in 30% acetonitrile buffer, and injected into a Sciex 4000 mass spectrometer. The components of the sample were ionized with electrospray ionization and the positive ions were detected. […] The fragments are quantified and the analyzed by the following method.
# First the NMN signal is normalized to the L-Cystathionine signal by dividing the NMN signal by the L-Cystathionine signal for each well. The signal from the background wells are averaged and subtracted from the test plates. […]
# IC50s are Determined Using Excel and this Formula. […]
row,Compound,IC50
1,COc1ccc2cc(S(=O)(=O)c3ccc(NC(=O)/C=C/c4cccnc4)cc3)ccc2c1 [(2E)-N-[4-(6-methoxynaphthalene-2-sulfonyl)phenyl]-3-(pyridin-3-yl)prop-2-enamide],5.9 nM
2,Cc1ccc(S(=O)(=O)c2ccc(NC(=O)/C=C/c3cccnc3)cc2)cn1 [(2E)-N-[4-(6-methylpyridine-3-sulfonyl)phenyl]-3-(pyridin-3-yl)prop-2-enamide],37.4 nM
3,Cc1cccc(S(=O)(=O)c2ccc(NC(=O)/C=C/c3cccnc3)cc2)c1 [(2E)-N-{4-[(3-methylbenzene)sulfonyl]phenyl}-3-(pyridin-3-yl)prop-2-enamide],32.3 nM
